According to US8017401B2, “Method for determining redox activity and screening compounds based on redox activity” (State of Oregon acting by and through the State Board of …, priority 2005, dated 2011):

Key:
[1] = Redox activity by reaction with photo-excited dye under aerobic conditions (probe reduction at 470 nm and dye photo-bleaching); format: physicochemical
[2] = Redox activity of activators and inhibitors of membrane-bound transport proteins (overview statement); format: physicochemical; settings: activators and inhibitors of the sarcoplasmic reticulum calcium release channel; no reference given
[3] = 10 μM methylene blue, 100 μM NADH, 50 μM NBD-Cl, 80% dimethyl sulfoxide / 20% 1 mM Tris-HCl, pH 7.4, ryanodine 1 and 2 μM vs zero

Substance: ryanodine
- rate of NBD-Cl reduction (increasing absorbance at 470 nm) [1, 3]: decreased
- rate of methylene blue bleaching (decreasing absorbance at 663 nm) [1, 3]: decreased
- redox activity (electron donor or electron acceptor) ([1]; conclusion from the photo-excited dye assay of the respective example): electron acceptor
- redox activity (electron donor or electron acceptor) [2]: electron acceptors
